Assay results published in patent publication US8618107B2 (Gilead Connecticut, Inc., priority 2010, dated 2013).

By UniProt entry, the sequences of proteins in these tests, tags left out. Where a name states a change or a piece, a line headed by the entry shows the natural chain unless it says otherwise.
UniProt Q06187: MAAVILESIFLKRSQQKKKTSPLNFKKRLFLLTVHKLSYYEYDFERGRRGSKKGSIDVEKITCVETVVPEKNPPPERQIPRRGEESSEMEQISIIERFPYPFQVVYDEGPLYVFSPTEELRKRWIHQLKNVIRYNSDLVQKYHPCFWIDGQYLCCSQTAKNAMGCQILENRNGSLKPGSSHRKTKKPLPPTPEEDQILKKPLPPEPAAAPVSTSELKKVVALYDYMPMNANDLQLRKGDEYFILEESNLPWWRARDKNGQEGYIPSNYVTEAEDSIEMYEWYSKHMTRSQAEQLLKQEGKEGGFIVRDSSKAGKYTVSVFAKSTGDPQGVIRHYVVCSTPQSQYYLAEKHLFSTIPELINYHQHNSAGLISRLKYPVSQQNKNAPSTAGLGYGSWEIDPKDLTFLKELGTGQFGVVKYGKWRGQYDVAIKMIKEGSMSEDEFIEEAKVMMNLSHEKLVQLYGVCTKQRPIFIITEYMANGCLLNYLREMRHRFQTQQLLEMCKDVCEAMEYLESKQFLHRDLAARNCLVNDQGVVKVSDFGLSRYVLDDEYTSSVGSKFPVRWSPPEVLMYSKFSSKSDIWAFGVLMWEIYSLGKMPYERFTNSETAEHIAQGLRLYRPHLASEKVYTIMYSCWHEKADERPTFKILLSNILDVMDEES

Target: Btk (Homo sapiens (Human), UniProt Q06187)
Assay: standard biochemical Btk Kinase Assay (Example 901)
Conditions: Table 2

Row | Compound | IC50 [nM]
1 | CN1CCN(c2ccc(Nc3cc(-c4cc(F)cc(N5CCn6c(cc7c6CCCC7)C5=O)c4CO)cn(C)c3=O)nc2)CC1 [Example 197, 2-(5-fluoro-2-(hydroxymethyl)-3-(1-methyl-5-(5-(4-methylpiperazin-1-yl)pyridin-2-ylamino)-6-oxo-1,6-dihydropyridin-3-yl)phenyl)-3,4,6,7,8,9-hexahydropyrazino[1,2-a]indol-1(2H)-one] | 2
2 | Cn1cc(-c2cc(F)cc(N3CCn4c(cc5c4CCCC5)C3=O)c2CO)cc(Nc2ccc(N3CCN(C4COC4)CC3)cn2)c1=O [Example 210, 2-(5-fluoro-2-(hydroxymethyl)-3-(1-methyl-5-(5-(4-(oxetan-3-yl)piperazin-1-yl)pyridin-2-ylamino)-6-oxo-1,6-dihydropyridin-3-yl)phenyl)-3,4,6,7,8,9-hexahydropyrazino[1,2-a]indol-1(2H)-one] | 3.9
